Results taken from patent publication US5919765A, “Inhibitors of factor XA” (COR Therapeutics, Inc., priority 1995, dated 1999).

Target: T1, thrombin (Homo sapiens, UniProt P00734)
T1 construct: The formation of thrombin is the result of the proteolytic cleavage of its precursor prothrombin
Experiment: Thrombin amidolytic assay (chromogenic substrate Chromozym TH)
Format: biochemical
Details: read-out: Inhibitory Activity (IC50) Thrombin

Question: How did the IC50 turn out when `C[C@@H](NC(=O)[C@@H](CCCNC(=N)N)NC(=O)OC(C)(C)C)C(=O)N[C@H](C=O)CCCNC(=N)N` [Boc--D--Arg--D--Ala--Arg--H, Boc-D-Arg-D-Ala-Arg--H] was run?
Answer: > 10 µM
